Source: US11155793B2, “Phytase variants YeAPPA having improved gastric protein resistance and acid resistance, and increased catalytic efficiency” (priority 2017, dated 2021)

Tested on: O=P(O)(O)O[C@H]1[C@H](OP(=O)(O)O)[C@@H](OP(=O)(O)O)[C@H](OP(=O)(O)O)[C@@H](OP(=O)(O)O)[C@H]1OP(=O)(O)O
Assay: purified protein, by the assay type
Settings: other: YeAPPA wild, sodium phytate 0.0625-1.5 mmol/L, optimal pH 5, 45° C.

With “wild phytase YeAPPA, SEQ ID NO.1 (Yersinia enterocolitica)” the Km was 190 µM.
